{"sequences": {"note": "Protein sequences, listed by entry. Tags and fused reporters are not part of them.", "UniProt P49654, whole entry": "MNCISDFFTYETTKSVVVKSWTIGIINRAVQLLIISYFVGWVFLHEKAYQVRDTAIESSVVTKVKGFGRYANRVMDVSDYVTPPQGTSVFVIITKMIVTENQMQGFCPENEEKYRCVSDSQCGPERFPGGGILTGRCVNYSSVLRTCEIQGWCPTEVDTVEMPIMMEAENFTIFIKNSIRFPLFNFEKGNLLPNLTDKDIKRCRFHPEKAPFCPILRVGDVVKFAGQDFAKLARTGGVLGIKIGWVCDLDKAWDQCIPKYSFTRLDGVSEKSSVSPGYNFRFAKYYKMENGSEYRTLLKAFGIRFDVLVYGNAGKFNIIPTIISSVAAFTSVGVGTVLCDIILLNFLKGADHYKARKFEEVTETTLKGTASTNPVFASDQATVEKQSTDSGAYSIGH"}, "source": "patent US8093275B2", "about": "“Oxazolone and pyrrolidinone-substituted pryidine amides as P2X3 and P2X2/3 antagonists” (Roche Palo Alto LLC, priority 2009, dated 2012)", "target": "rat P2X3 receptor (Rattus norvegicus, UniProt P49654)", "assay": "P2X3 FLIPR (Fluorometric Imaging Plate Reader) assay", "conditions": "CHO-K1 cells transfected with rat P2X3; agonist α,β-meATP 1 μM; FLIPR calcium fluorescence", "protocol": "CHO-K1 cells were transfected with cloned rat P2X3 or human P2X2/3 receptor subunits and passaged in flasks. 18-24 hours before the FLIPR experiment, cells were released from their flasks, centrifuged, and resuspended in nutrient medium at 2.5×10^5 cells/ml. The cells were aliquoted into black-walled 96-well plates at a density of 50,000 cells/well and incubated overnight in 5% CO2 at 37° C. On the day of the experiment, cells were washed in FLIPR buffer (calcium- and magnesium-free Hank's balanced salt solution, 10 mM HEPES, 2 mM CaCl2, 2.5 mM probenecid; FB). Each well received 100 μl FB and 100 μl of the fluorescent dye Fluo-3 AM [2 μM final conc.]. […]\nTest compounds (dissolved in DMSO at 10 mM and serially diluted with FB) or vehicle were added to each well (25 μl of a 4× solution) and allowed to equilibrate for 20 minutes at room temperature. The plates were then placed in the FLIPR and a baseline fluorescence measurement (excitation at 488 nm and emission at 510-570 nm) was obtained for 10 seconds before a 100 μl/well agonist or vehicle addition. […] Fluorescence was measured for an additional 2 minutes at 1 second intervals after agonist addition. A final addition of ionomycin (5 μM, final concentration) was made to each well of the FLIPR test plate to establish cell viability and maximum fluorescence of dye-bound cytosolic calcium. […]", "data": [{"smiles": "Cc1ccc(-c2cc(C(=O)NCc3cnc(C)cn3)cc(N3C(=O)OC[C@H]3C)c2)nc1", "values": [{"measurement": "pKi P2X3", "result": 5.82}]}]}
